From ChEMBL document CHEMBL5143642, “Thiosemicarbazone derivatives: Evaluation as cruzipain inhibitors and molecular modeling study of complexes with cruzain” (Bioorg Med Chem, 2022)

The chains behind the UniProt entries cited, without tags or fusion partners. Where a name states a change or a piece, a line headed by the entry shows the natural chain unless it says otherwise.
UniProt P25779: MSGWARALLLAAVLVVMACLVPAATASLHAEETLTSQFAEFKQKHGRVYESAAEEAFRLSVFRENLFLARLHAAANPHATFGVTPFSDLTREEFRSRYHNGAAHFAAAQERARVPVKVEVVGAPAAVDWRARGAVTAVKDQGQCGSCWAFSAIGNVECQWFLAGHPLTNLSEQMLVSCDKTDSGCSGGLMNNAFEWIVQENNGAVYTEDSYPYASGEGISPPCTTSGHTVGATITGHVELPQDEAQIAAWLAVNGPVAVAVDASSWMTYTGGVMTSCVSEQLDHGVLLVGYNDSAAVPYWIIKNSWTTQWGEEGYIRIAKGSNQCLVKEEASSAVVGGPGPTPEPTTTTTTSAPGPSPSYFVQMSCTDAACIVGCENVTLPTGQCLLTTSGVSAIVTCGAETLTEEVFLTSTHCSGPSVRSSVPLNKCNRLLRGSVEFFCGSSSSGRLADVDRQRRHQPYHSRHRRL

Biological target: Cruzipain (Trypanosoma cruzi, UniProt P25779)
Experiment: Inhibition of epimastigote form of Trypanosoma cruzi Tulahuen 2 cruzain assessed as reduction in 7-amino-4-methylcoumarin release incubated for 20 mins folllowed by Z-FR-AMC substrate addition and measured up to 45 mins by fluorometric assay

CC/C(=N\NC(N)=S)c1cccc(Br)c1
IC50: 153 nM
